US20090155395A1 (SAGITTARIUS LIFE SCIENCE CORP., priority 2007, published 2009)

Chains of the proteins cited; added tags and fusions are not shown. Residues count along the entry.
UniProt P23219, 24-599: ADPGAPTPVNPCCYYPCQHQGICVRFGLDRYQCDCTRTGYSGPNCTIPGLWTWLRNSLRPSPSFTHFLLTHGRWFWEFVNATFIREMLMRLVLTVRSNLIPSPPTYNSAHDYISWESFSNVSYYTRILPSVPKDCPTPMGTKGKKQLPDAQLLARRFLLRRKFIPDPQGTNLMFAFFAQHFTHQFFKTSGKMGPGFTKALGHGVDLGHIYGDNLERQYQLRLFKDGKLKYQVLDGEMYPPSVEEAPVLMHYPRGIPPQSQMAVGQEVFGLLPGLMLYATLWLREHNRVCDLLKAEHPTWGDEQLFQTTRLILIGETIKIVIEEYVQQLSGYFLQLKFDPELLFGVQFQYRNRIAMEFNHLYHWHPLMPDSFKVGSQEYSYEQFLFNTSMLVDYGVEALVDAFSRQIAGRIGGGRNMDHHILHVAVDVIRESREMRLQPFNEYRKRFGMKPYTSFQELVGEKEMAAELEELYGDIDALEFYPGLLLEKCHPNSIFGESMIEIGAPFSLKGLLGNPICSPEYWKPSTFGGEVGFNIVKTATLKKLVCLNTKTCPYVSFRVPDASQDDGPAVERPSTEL

Target: Human platelet COX I (Homo sapiens, UniProt P23219)
Assay: COX I inhibition in human platelets (PGE2 EIA)

IC50: > 9.66 µM
SMILES: CS(=O)(=O)c1ccc(C2=C(c3ccccc3)C(=O)OC2)cc1 [Rofecoxib]
